Laboratory results as given in article PMC9468336, “The choanoflagellate pore-forming lectin SaroL-1 punches holes in cancer cells by targeting the tumor-related glycosphingolipid Gb3” (Communications Biology, 2022).
Where two headings read alike, the source gives them in different places.

Protein sequences, listed by entry. Tags and fused reporters are not part of them. Residues count along the entry.
UniProt F2UID9, 1-329: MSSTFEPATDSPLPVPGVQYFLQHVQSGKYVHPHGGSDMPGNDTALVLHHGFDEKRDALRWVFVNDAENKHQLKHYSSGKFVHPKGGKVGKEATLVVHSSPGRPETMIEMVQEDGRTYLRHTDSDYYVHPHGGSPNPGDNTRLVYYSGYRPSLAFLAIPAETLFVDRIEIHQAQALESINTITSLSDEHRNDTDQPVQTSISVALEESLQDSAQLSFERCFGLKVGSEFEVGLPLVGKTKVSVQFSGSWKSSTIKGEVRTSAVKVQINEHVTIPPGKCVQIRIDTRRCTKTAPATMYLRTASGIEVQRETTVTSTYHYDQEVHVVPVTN

Key:
SaroL-1 [1] = target: T1, SaroL-1 (Salpingoeca rosetta, UniProt F2UID9); assay: Isothermal titration calorimetry (MicroCal iTC200) at 25 °C in 20 mM Tris/HCl pH 7.5, 100 mM NaCl, ligand titrated into SaroL-1, one-site model with stoichiometry N fixed to 3.; type: binding
T1 construct: gene PTSG_08235; monomeric in solution
Experimental: Isothermal Titration Calorimetry (ITC)
ITC experiments were performed with MicroCaliTC200 (Malvern Panalytical). Experiments were carried out at 25 °C ± 0.1 °C. SaroL-1 and ligands samples were prepared in Buffer A. The ITC cell contained SaroL-1 in a concentration range from 0.05 mM to 0.16 mM. The syringe contained the ligand solutions in a concentration from 10 to 50 mM. 2 μL of ligands solutions were injected into the sample cell at intervals of 120 s while stirring at 750 rpm. Integrated heat effects were analysed by nonlinear regression using one site binding model (MicroCal PEAQ-ITC Analysis software). The experimental data were fitted to a theoretical curve, which gave the dissociation constant (Kd) and the enthalpy of binding (∆H).

SaroL-1 [2] = target: T1, SaroL-1; assay: Inhibition of SaroL-1 (217 nM) induced hemolysis of rabbit erythrocytes after 1 h pre-incubation of lectin with sugar at RT, then 1-2 h at 37 °C, absorbance of supernatant at 540 nm.; type: cell-based; conditions: n = 2
Experimental: Hemolytic assay (HA) and inhibition of hemolytic activity (IHA)
Both HA and IHA assays were performed in U-shaped 96-well microtiter plates. In both cases, a control negative experiment was performed with Buffer A added to erythrocyte solution (2% final concentration), and the resulting value was subtracted from all data.
IHA was performed in U-shaped 96-well microtiter plates. […] 4% rabbit erythrocytes were added to the mixture in a 1:1 ratio and incubated for 1–2 h at 37 °C. The samples were centrifuged, 2600 × g for 15 min at RT, and the absorbance of the supernatant was measured at 540 nm by a Tecan reader.

Row | Substance | Kd (SaroL-1 [1]; read-out: Kd) [mM] | IC50 (SaroL-1 [2]) [mM] | Kd (SaroL-1 [1]) [mM]
1 | α-D-galactopyranosyl-(1-4)-D-galactose, terminal disaccharide of globoside Gb3 [αGal1-4Gal] | 0.39 |  | 
2 | αGal1-6Glc (melibiose) | 1.2 | 1.5 | 
3 | βGal1-4Glc (lactose) |  |  | 6.66
